According to PubChem BioAssay (NCI):
The list shows a part of the results, in another mix than the full data. Where a structure was tested more than once in an assay, its records may differ in their call. The source made the active and inactive calls. No stated cut-off is given here; in the data, active means growth inhibition above about 70%; inactive means the rest.

Experiment: NCI Yeast Anticancer Drug Screen. Data for the wt2 strain (AID 169);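 further: 0% = growth of vehicle-treated yeast cultures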
Details: S. cerevisiae wt2 strain growth inhibition, stronger effect = higher value
Procedure: Growth inhibition of yeast strains with defined genetic alterations is measured as a screen for potential anti-cancer activity. Selected strains with alterations in DNA damage repair or cell cycle control were exposed to compounds and growth inhibition was measured relative to vehicle treated controls. The strain used in this assay is wt2

Structure (SMILES) | growth inhibition (at 1.2 µM) | growth inhibition (at 3.7 µM) | growth inhibition (at 11.0 µM) | growth inhibition (at 33.0 µM) | growth inhibition (at 100.0 µM)
CN(C)P(=O)(N(C)C)n1c(Nc2ccccc2)nnc1-c1ccccc1 | inactive: -41% | inactive: -11% | inactive: -46% | active: 96% | active: 94%
FC1(F)SC2C(C1(F)F)C1(Cl)C(Cl)=C(Cl)C2(Cl)C1(Cl)Cl (stereo not given) | inactive: 22% | active: 98% | active: 99% | active: 99% | active: 99%
CC(C)c1nc(Nc2ccccc2)n(P(=O)(N(C)C)N(C)C)n1 | inactive: -26% | inactive: -12% | inactive: -5% | inactive: 32% | active: 93%
O=[N+]([O-])c1cc([N+](=O)[O-])c2nsnc2c1 | inactive: 13% | inactive: 54% | active: 100% | active: 100% | active: 100%
COc1cccc(C[N+](C)(CCCl)CCCl)c1[N+](=O)[O-] | inactive: 13% | inactive: 15% | inactive: 17% | inactive: 19% | inactive: 39%
NC(Cc1cnc[nH]1)C(=O)O (stereo not given) | inactive: -13% | inactive: 52% | active: 98% | active: 99% | active: 99%
O=C1OC(C(Cl)(Cl)Cl)Sc2ccccc21 (stereo not given) | inactive: -2% | inactive: -2% | inactive: 1% | inactive: 27% | active: 75%
N#Cc1cc([N+](=O)[O-])cc([N+](=O)[O-])c1N | inactive: 8% | inactive: 15% | inactive: 23% | inactive: 39% | inactive: 58%
